Test results taken from ChEMBL document CHEMBL1165955, “Synthesis and biological evaluation of novel (4 or 5-aryl)pyrazolyl-indoles as inhibitors of interleukin-2 inducible T-cell kinase (ITK)” (Bioorg Med Chem, 2010).

Experiment: Selectivity ratio of IC50 for GST-tagged recombinant INSR catalytic domain to IC50 for GST-tagged full length recombinant ITK

Ratio IC50: > 178
Compound: CC(C)CN(C)C(=O)c1ccc2cc(-c3cc(Cc4ccccc4)[nH]n3)[nH]c2c1
